Where two headings read alike, the source gives them in different places.
Columns and labels:
[1] = molecular target: T1, CB1 (rat brain preparation) (Rattus norvegicus, UniProt P20272); settings: read-out: apparent IC50, cannabinoid receptor binding; compared with literature rCB1
MAGL [2] = molecular target: T2, MAGL (Homo sapiens, UniProt Q99685); settings: cited from earlier work
[3] = molecular target: T1, CB1 (rat brain preparation); settings: read-out: literature IC50 for rCB1; literature report; cited from earlier work
MAGL [4] = molecular target: T2, MAGL; test: hMAGL coumarin substrate fluorescence assay; format: biochemical; set-up: The N-terminal his-tagged full length human monoacylglycerol lipase used; His (N); made in house; host or cells: E. coli

Sequences of proteins named here, by UniProt entry; tags and fusion partners are left off.
UniProt P20272, whole entry: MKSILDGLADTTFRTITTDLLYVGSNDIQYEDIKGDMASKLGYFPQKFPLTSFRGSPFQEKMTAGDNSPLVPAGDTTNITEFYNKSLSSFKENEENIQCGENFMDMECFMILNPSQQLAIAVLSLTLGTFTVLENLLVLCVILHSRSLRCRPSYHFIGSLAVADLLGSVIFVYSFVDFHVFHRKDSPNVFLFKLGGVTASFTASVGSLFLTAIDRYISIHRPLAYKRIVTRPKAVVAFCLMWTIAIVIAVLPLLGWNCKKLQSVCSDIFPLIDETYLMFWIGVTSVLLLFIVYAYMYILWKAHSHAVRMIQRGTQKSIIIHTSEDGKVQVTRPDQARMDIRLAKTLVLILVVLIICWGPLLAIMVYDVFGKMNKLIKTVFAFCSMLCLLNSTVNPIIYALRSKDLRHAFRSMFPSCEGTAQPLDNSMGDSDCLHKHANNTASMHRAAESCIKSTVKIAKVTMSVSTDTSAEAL
UniProt Q99685, whole entry: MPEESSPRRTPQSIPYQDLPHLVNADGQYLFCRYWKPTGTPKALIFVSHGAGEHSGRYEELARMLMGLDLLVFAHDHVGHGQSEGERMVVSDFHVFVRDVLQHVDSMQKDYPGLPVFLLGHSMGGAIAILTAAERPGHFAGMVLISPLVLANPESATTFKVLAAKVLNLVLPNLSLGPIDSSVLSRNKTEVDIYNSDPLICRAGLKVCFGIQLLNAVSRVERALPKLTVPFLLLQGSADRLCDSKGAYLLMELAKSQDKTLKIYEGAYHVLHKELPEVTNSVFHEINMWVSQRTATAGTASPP

CCCCCCCCCCCCCCCCS(=O)(=O)F [n-C16H33SO2F, Palmitylsulfonyl fluoride]
IC50 [1]: 440 nM
inhibition of MAGL activity reported in the literature (MAGL [2]): poor inhibitors
IC50 [3]: 520 nM
hMAGL inhibition at 10 μM (%) (MAGL [4]): 82%

Source: patent US20150099800A1, “NOVEL LIPASE INHIBITORS, REPORTER SUBSTRATES AND USES THEREOF” (Northeastern University, priority 2012, published 2015)
